Yeast mating assay B: variants of the scFv Ab-14

The target is the same throughout: PDVDLGDISGINAS, from the HR2 region of SARS-CoV-2 spike.

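Phage display of a naive human antibody library on the peptide gave the parent. These sequences belong to a second round, designed from the earlier measurements on random variants of the parent. Their group label is 14L_En_Gibbs (En: ensemble of fine-tuned language models; Gibbs: Gibbs sampling). The scFvs were displayed on barcoded MATa yeast, the peptide on MATalpha yeast. Binding brings cells together so that they mate, and sequencing counts the barcode pairs among the diploids. Scores were corrected for input abundance and mapped to Kd with protein pairs of known affinity run in the same pool. There are six technical replicates.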

Ab-14 is the parent antibody, in scFv form: VH, then the linker GGGGSGGGGSGGGGS, then VL. The heavy chain is unchanged in all variants.
VH: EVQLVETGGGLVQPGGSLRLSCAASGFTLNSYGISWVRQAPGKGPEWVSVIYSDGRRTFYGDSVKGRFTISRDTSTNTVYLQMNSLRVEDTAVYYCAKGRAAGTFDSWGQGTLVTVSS
VL: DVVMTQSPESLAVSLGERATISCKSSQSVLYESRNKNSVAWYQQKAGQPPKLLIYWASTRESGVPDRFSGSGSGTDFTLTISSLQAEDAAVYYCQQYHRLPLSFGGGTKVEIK

The parent's light chain CDRs are KSSQSVLYESRNKNSVA, WASTRES, QQYHRLPLS; each variant's own CDRs replace them letter for letter.
Scale: log10 of Kd in nM, estimated from mating counts; low values are strong binders.
"ND" means that the variant was in the library but no mating with the target was seen in that replicate; the authors take this as a sign of poor binding, and no number exists.

KLSNWYFDSYGNKQSVA / ENEATSN / QQYSLLPLS: 1.52, 2.22, 1.31, 2.05, 1.79, 2.08 (controls 1 of 18).
KISMGIEMNTRQNHNMA / EASLKPS / QQYNRLPFA: ND, ND, ND, ND, ND, ND (controls 0 of 18).
YLDSGDVDGQKSKESIA / DADHKGA / QQYARLPLG: 0.80, 0.81, 1.01, 0.66, 0.89, 1.15 (controls 1 of 18).
HMDLAVAGLTRDMNSIA / NTSARCA / QQYYRFPLI: 1.17, 1.36, 1.28, 1.11, 1.43, 1.85 (controls 0 of 18).
QLSVFELQGTGWAQSIA / QADHRTE / QQFARLPLV: 1.33, 0.85, 0.36, 0.43, 0.47, 2.88 (controls 0 of 18).
QLMEEQSMRTEATRNIA / QGEQKVH / QQYFRLPLA: 0.65, 0.51, 0.23, 0.31, 0.18, 0.08 (controls 1 of 18).
TMNVELAYGVPEMGNVA / AGSQKLA / QQYYRLPLS: 0.79, 0.12, 0.10, 0.75, 0.13, 0.59 (controls 0 of 18).
SMAYFQHFGNQQEKAIA / EVATREQ / QQYFRLPLT: 0.81, 0.66, 0.38, 0.48, 0.67, 0.50 (controls 0 of 18).
SLSMNQGEESSVWENVA / QGDIAEN / QDYSRLPLI: 1.74, 2.25, 1.38, 1.63, 1.62, 2.20 (controls 0 of 18).
YVSGQLDEGWNQQEAIA / HVSYKED / QQYYKLPLS: 0.12, 0.40, 0.89, 1.13, 1.41, ND (controls 0 of 18).
HINTASVGVDDHYNAVA / EQRITGI / QQYFRLPLS: 1.16, 1.03, 0.59, 1.26, 0.82, 0.72 (controls 0 of 18).
MITGAMEQEWSNKNPVA / SATDRAP / QSYFRLPLM: 0.66, 1.07, 0.69, 0.76, 0.97, 1.11 (controls 3 of 18).
QLAVNRLMNYTMNNAIA / GKTLRVD / QQYARLPLS: 1.96, 2.01, 2.41, 2.00, 1.91, 1.98 (controls 0 of 18).
RLQAHMYDDQYHVNAIA / AGHDRAK / QQYQRLPLS: 0.37, 1.04, 0.36, 0.61, 1.02, 0.51 (controls 1 of 18).
KVAQGIFDGKRHSHSIA / EVSHLCD / QQYSRLPLE: 0.79, 0.67, 0.60, 1.33, 1.11, 1.43 (controls 0 of 18).
FMEMDFDGNSVNHNSIA / SSEVVTR / QHYYRLPLS: ND, ND, ND, ND, ND, ND (controls 0 of 18).
KIQDNLGTLMEQINSVA / ASEEISD / QSYFRLPLI: 1.61, 1.41, 1.59, 1.69, 0.79, 2.02 (controls 1 of 18).
FFDFQMLEWQYDANNIA / GATLSIE / QQYGRLPLT: ND, ND, ND, ND, ND, 1.69 (controls 0 of 18).
TMNVELIYGVPMMNNVA / AGSQKLA / QQYYRLPLS: 0.23, 0.39, 0.24, 0.14, 0.35, 0.57 (controls 0 of 18).
KLTHPTDLWLNHVSNIA / DANISVE / QQYYQLPLT: 1.15, 0.78, 0.38, 0.53, 0.65, 0.99 (controls 1 of 18).
KIELSNSVSLRGTRAIA / DGSERAH / QQYHRLPLT: 0.06, 0.16, -0.08, -0.38, 0.01, -0.03 (controls 0 of 18).
QLQFEDVQYGVNEQAIA / EENQRMQ / QHYFRLPLI: ND, 4.44, ND, 2.57, 3.12, 2.46 (controls 0 of 18).
NISINVADEYAMRNNIA / NTSWKAI / QQYFHLPLM: 1.46, 1.07, 1.04, 0.66, 1.09, 1.32 (controls 0 of 18).
SMQFYTENFAEIGQNIA / DVSATTA / QQYHRLPLA: 1.54, 1.77, 0.98, 1.06, ND, 3.52 (controls 0 of 18).
HMSEQEHGDNVGVGNMA / NAHETVA / QQYHHLPLS: 0.86, 0.40, 0.28, 0.27, 0.29, 0.59 (controls 0 of 18).
QVVDEQWAEGQNIQSIA / EGEVRKD / QQYNRLPLS: ND, ND, ND, ND, 1.99, ND (controls 0 of 18).
RLTEHYSEKKAADASVA / DANTRND / QQYHRLPLF: 0.01, -0.14, -0.28, -0.20, 0.08, 0.16 (controls 4 of 18).
RLENQETEQIQHANSIA / DRDEVDS / QQYAHLPLS: ND, ND, 2.78, ND, ND, ND (controls 0 of 18).
RLTEHTSERAYADASVA / EASTRND / QQYHRLPLF: -0.19, 0.15, -0.27, -0.42, -0.41, 0.01 (controls 0 of 18).
NLVGRVPDNYTERNAIA / DMHCRAG / QQYERLPLS: 2.31, 2.17, 1.55, 1.95, 2.41, 2.34 (controls 2 of 18).
ALREVFYQEQVEHSAIA / DGEHLNN / QQYSMLPLS: 1.13, 0.97, 1.12, 0.09, 0.46, 1.06 (controls 0 of 18).
SISVFQNMSTQGNNSIA / GAEQKVH / QQYDRLPLY: ND, 1.82, 2.28, 2.61, 2.68, ND (controls 0 of 18).
SLAYTQHFGFSQEKAIA / EVATREQ / QQYFRLPLT: 1.18, 1.55, 1.34, 0.77, 0.69, 0.89 (controls 0 of 18).
KFMYSGEYQMHEQNNIA / QGNIKTV / QQYFRLPIS: 0.39, 0.52, 0.50, 0.33, 0.25, 0.46 (controls 1 of 18).
MMGGTKTMQSNEIGNVA / DMNERFA / QQYFQLPLS: 0.88, 0.31, 0.43, 1.22, 0.41, 0.96 (controls 1 of 18).
NFSMELEDMGVKTKSIA / ENQLTEY / QQYAKLPLM: ND, ND, ND, ND, 1.09, ND (controls 0 of 18).
NLSIEMSYYYENRYNIA / EMTVREY / QYYSRLPLA: 1.79, 1.05, ND, 0.98, 2.43, ND (controls 0 of 18).
NLNVSEDQWPSSKNAIA / QTTCRVL / QQYAHLPLS: 0.27, 0.16, 0.49, 0.14, 0.26, 0.47 (controls 0 of 18).
MIEEGQAGENKNSSNIA / SQDQKTD / QQYQRLPLI: 0.87, 0.73, 0.66, 0.62, 0.61, 0.94 (controls 1 of 18).
TLMMDPTEQRDSKHAVA / DNNQRDR / QQYHRLPLS: 1.54, 1.10, 1.65, 1.69, 1.58, 1.11 (controls 1 of 18).
SVFMELAEEKNSTRNIA / DASMRLA / QQYVRLPLG: 1.02, 0.80, 1.11, 1.39, 0.67, 1.72 (controls 0 of 18).
QLAVDRLQEYEMGDAIA / GKTLRED / QQYYRLPLS: 0.50, 0.15, 0.23, 0.21, 0.24, 0.61 (controls 0 of 18).

3 of these entries, quoted again:

CDR-L1	CDR-L2	CDR-L3	log10 Kd (nM) by replicate	control signals
YVSGQLDEGWNQQEAIA	HVSYKED	QQYYKLPLS	0.12, 0.40, 0.89, 1.13, 1.41, ND	0/18
RLENQETEQIQHANSIA	DRDEVDS	QQYAHLPLS	ND, ND, 2.78, ND, ND, ND	0/18
FFDFQMLEWQYDANNIA	GATLSIE	QQYGRLPLT	ND, ND, ND, ND, ND, 1.69	0/18

Of ten entries with the parent sequence, four were seen in most replicates (averages 0.34 to 2.37), three in one and three in none, so single entries are noisy.
The authors' rule: three or more of the six replicates give a measured affinity, fewer mean a poor binder.
A sequence measured in both rounds can read differently, since the two assays cover different ranges.
Three control strains display no target. For all light chain designs, 4% of the pairings with them gave a signal, with a median of 2.64 and one signal in twenty below 1.59, so weak values seen in few replicates may be background. Also given: how often the same scFv was detected with the empty control strains.

Data: MIT Lincoln Laboratory AlphaSeq set, Li et al. 2023, doi:10.1038/s41467-023-39022-2, as distributed in FLAb.